Positions of bridges follow the written chain, without caps; N, C: chain ends. Non-standard residues stand in square brackets, D forms with d. Residues, ends and D or L forms follow the SMILES beside them. Chains are numbered I, II in the order given. *: point of attachment. Fluorescein(5-Mal) = O=C1OC2(c3ccc(O)cc3Oc3cc(O)ccc32)c2ccc(N3C(=O)CC(*)C3=O)cc21; Gly(N-piperonyl) = O=C(O)CNCc1ccc2c(c1)OCO2; Nrpe = C[C@@H](NCC(=O)O)c1ccccc1; Nleu = CC(C)CNCC(=O)O; Nlys = NCCCCNCC(=O)O; Ahx = NCCCCCC(=O)O; βAla = NCCC(=O)O
Key:
VEGFR2 = VEGFR2 (Homo sapiens, UniProt P35968); assay: GU40C4 cell surface binding assay (biotinylated peptoid, streptavidin quantum dots); format: cell-based; set-up: allow the library to be screened against the full-length receptor in as natural an environment as possible; host or cells: PAE/KDR (porcine aortic endothelial cells expressing human KDR); settings: VEGFR2 overexpressing cells
Procedure: GU40C4 cell surface binding assay. Different types of cells (PAE/KDR, PAE, Hela, HEK-293, MCF-7, HFF) were grown on each well of chamber slides (Nalge Nunc International) (10,000 cells/chamber) overnight. Washed, and fixed cells with 3.7% formaldehyde and blocked with Startingblock blocking buffer. Each chamber was treated (except the control) with 75 nm biotinylated GU40C4 peptoid followed by Qdot® 655 streptavidin conjugate (Invitrogen). After the final washing, cells were mounted by ProLong® Gold antifade reagent with DAPI (Invitrogen) and visualized under DAPI filter of the fluorescence microscope.
Specificity of the GU40C4-VEGFR2 interaction on the cell surface. To evaluate the specificity of the high affinity dimeric peptoid for VEGFR2, various cell types were incubated with biotinylated GU40C4 peptoid and association of the small molecule with the cells was probed using streptavidin conjugated red quantum dots (Qtracker 655) (FIGS. 5A-H). The DAPI-stained nuclei are shown in blue. GU40C4 binding to PAE/KDR cells that overexpress VEGFR2 was seen clearly (FIG. 5A), as expected. […]
An important question is whether the peptoid is able to recognize VEGFR2 on the surface of cells when the receptor is expressed at native levels. […] Of these, only MCF-7 expresses significant quantities of the VEGFR2. […]

Amino acid sequences for entries named in this document (tags omitted). Residues count along the entry.
UniProt P35968, 20-1356: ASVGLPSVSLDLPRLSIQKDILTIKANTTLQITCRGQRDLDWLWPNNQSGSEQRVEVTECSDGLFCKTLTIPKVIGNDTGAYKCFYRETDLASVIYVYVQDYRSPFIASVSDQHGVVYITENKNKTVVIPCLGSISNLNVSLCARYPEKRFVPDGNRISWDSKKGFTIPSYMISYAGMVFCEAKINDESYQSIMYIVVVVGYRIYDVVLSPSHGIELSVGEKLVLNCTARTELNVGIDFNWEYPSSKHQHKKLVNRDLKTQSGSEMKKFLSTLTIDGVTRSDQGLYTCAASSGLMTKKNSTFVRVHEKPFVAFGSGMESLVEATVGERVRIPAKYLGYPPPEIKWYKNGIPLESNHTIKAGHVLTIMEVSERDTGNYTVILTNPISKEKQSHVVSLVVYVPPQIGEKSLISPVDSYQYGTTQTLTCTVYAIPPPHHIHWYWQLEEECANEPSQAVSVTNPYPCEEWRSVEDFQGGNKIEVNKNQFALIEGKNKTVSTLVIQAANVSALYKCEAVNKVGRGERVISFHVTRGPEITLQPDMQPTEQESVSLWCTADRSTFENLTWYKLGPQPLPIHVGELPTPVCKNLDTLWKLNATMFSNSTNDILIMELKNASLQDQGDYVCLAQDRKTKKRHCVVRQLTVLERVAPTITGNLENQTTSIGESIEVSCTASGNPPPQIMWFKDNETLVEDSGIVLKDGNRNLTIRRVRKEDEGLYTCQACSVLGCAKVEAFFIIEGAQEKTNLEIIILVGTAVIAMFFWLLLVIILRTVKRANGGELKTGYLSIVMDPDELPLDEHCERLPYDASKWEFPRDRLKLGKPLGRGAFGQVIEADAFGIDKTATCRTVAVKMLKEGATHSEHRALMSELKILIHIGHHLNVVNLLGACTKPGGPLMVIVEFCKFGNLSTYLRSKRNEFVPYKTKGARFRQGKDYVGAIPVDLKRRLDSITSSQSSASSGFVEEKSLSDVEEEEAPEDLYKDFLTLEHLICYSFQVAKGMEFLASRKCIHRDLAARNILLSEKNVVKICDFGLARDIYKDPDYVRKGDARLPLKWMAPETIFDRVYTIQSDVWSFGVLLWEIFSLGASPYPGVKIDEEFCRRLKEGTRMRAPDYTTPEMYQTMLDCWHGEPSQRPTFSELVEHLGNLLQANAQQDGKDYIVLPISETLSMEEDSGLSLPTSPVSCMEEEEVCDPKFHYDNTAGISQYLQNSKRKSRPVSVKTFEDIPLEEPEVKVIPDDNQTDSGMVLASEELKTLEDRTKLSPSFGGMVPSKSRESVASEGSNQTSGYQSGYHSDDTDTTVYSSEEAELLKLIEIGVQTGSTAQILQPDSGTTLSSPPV

[1] = test system: A673 (human Ewing's sarcoma) tumors; settings: mouse, in vivo

## CC(C)CN(CC(=O)N(CCCCN)CC(=O)N(CC(=O)N(CC(=O)N(CCCCN)CC(=O)N(CC(=O)N(CCCCN)CC(=O)N(CCCCN)CC(=O)NCCCCCC(=O)NCCC(=O)N[C@@H](CCCCNC(=O)CN(CCCCN)C(=O)CN(CCCCN)C(=O)CN(CC(C)C)C(=O)CN(CCCCN)C(=O)CN(Cc1ccc2c(c1)OCO2)C(=O)CN(C(=O)CN(CCCCN)C(=O)CN(CC(C)C)C(=O)CNCCCCN)[C@H](C)c1ccccc1)C(=O)N[C@@H](CSC1CC(=O)N(c2ccc3c(c2)C(=O)OC32c3ccc(O)cc3Oc3cc(O)ccc32)C1=O)C(N)=O)CC(C)C)Cc1ccc2c(c1)OCO2)[C@H](C)c1ccccc1)C(=O)CNCCCCN (stereo partly drawn) [GU40C4] (I: H-[Nlys][Nleu][Nlys][Nrpe][Gly(N-piperonyl)][Nlys][Nleu][Nlys][Nlys][Ahx][βAla]KC(Fluorescein(5-Mal))-NH2 / II: H-[Nlys][Nleu][Nlys][Nrpe][Gly(N-piperonyl)][Nlys][Nleu][Nlys][Nlys]; amide I:12-II:C)
VEGFR2
  binding to PAE/KDR cells: seen clearly
[1]
  reduction of microvessel density: approximately 50%
[1]; sc
  tumor growth: reduced tumor growth rate and significantly smaller tumors
